# Data: paper PMC11968506, “Toxicokinetics and analytical toxicology of the phenmetrazine-derived new psychoactive substance 3,4-methylenedioxyphenmetrazine studied by means of in vitro systems” (Archives of Toxicology, 2025)
# By UniProt entry, the sequences of proteins in these tests, tags left out.
# UniProt P05177, whole entry: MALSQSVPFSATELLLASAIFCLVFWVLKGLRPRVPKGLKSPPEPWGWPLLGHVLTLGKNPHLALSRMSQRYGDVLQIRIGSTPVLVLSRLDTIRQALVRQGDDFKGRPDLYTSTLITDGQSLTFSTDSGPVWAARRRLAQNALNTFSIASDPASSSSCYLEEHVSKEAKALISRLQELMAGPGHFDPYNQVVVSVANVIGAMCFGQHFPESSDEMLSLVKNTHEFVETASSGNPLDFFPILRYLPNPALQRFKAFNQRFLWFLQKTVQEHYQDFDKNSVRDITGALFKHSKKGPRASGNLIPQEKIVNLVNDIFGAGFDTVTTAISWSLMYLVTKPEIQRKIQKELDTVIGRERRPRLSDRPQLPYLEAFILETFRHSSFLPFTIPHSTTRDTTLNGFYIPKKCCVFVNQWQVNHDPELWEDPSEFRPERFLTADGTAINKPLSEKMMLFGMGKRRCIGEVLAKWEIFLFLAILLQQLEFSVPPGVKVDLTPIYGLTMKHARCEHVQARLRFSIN
# Target: CYP1A2 (Homo sapiens, UniProt P05177)
# Experiment: CYP inhibition cocktail assay in pHLM, CYP1A2 (phenacetin)
# Conditions: inhibitor 20 µM, phenacetin 12 µM, pHLM 0.4 mg/mL, 15 min; control without inhibitor = 100%
smiles,measurement,value
"O=c1cc(-c2ccccc2)oc2c1ccc1ccccc12 [α-Naphthoflavone, alpha-naphthoflavone, reference compound]",CYP1A2 metabolite formation,7%
